Reference: article PMC10926851 (Journal of medicinal chemistry, 2021)

System: CCRF-CEM cells
Experiment: Cell cycle analysis
Type: cell-based, human
Details: 72 h, CC50

Cc1ccc(NC(=O)COc2ccc3cc(/C=C4/SC(=O)NC4=O)ccc3c2)cc1 [7c, 2-((6-((2,4-Dioxothiazolidin-5-ylidene)methyl)naphthalen-2-yl)-oxy)-N-(p-tolyl)acetamide]
effect on the cell cycle: did not have a significant effect on the cell cycle

O=C(COc1ccc2cc(/C=C3/SC(=O)NC3=O)ccc2c1)Nc1c(F)cc(F)cc1Br [7i, N-(2-Bromo-4,6-difluorophenyl)-2-((6-((2,4-dioxothiazolidin-5-ylidene)methyl)naphthalen-2-yl)oxy)acetamide]
effect on the cell cycle: G0/G1 arrest
